The target in the assay is SERT (Rattus norvegicus, UniProt P31652). As to the kind of experiment: 3H-5-HT uptake assay in rat brain synaptosomal preparations.

Chains of the proteins cited; added tags and fusions are not shown.
UniProt P31652, whole entry: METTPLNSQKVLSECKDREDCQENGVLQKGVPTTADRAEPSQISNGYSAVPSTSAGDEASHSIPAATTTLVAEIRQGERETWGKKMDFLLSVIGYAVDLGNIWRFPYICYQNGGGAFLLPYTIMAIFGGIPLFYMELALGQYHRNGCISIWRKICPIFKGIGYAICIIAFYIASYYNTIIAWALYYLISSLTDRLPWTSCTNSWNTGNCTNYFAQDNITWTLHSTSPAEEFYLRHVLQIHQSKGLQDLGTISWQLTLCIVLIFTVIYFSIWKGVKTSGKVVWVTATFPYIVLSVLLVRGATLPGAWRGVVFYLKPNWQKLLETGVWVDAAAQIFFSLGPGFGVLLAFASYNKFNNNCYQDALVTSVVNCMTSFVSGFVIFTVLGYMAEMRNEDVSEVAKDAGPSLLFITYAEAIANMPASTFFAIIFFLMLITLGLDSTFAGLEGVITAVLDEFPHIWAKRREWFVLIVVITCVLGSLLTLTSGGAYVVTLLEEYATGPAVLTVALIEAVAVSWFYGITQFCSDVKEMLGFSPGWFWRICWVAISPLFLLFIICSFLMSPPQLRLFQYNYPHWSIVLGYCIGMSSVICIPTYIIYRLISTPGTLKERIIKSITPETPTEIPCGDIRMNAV

Molecules are shown by their SMILES. pIC50: −log10 of the molar value.

In the case of `CNCC[C@@H](Oc1ccccc1C)c1ccccc1` [Atomoxetine, atomoxetine, reference compound], the pIC50 is 7.10.

The term pIC50 denotes −log10 of the IC50, conventionally taken in molar units. The low end stands for a high IC50, the high end for a low IC50.

Values taken from US20110263631A1 (published 2011).
